Test results from patent EP4117701B1, “COMPOSITIONS FOR THE PREVENTION AND/OR TREATMENT OF BENIGN PROSTATIC HYPERTROPHY (BPH)” (IDI Integratori Dietetici Italiani S.r.l., priority 2020, dated 2021).

Tested on: IL-1β
Settings: LNCaP, conditioned THP-1 medium; concentrations of Table 2

## O=C(O)Cc1ccccc1Nc1c(Cl)cccc1Cl [Diclofenac]
  reduction of IL-1β release (in words): maximum reduction
